Reference: patent US5308606A, “Method of treating and/or diagnosing soft tissue tumors” (priority 1991, dated 1994)

Test system: liver
Assay: Liver uptake, scored from images of miniature pigs by 3 investigators
Conditions: average score (0-3) of 3 investigators; head 72 hrs, text 24 hour images; one value per pig

O=C([O-])CC(O)(CC(=O)[O-])C(=O)[O-].[67Ga+3] [B]
Liver Uptake (72 hrs): 2.67
